Key:
σ-1 = σ-1 (Rattus norvegicus (Rat), UniProt Q9R0C9); assay: σ-1 binding in rat brain homogenates, [3H](+)-pentazocine; details: read-out: σ-1 (Ki)
σ-2 = σ-2 (Rattus norvegicus (Rat), UniProt Q5U3Y7); assay: σ-2 binding in rat brain homogenates, [3H]DTG plus (+)-pentazocine; details: read-out: σ-2 (Ki)
[1] = molecular target: norepinephrine transporters (Rattus norvegicus, UniProt Q63380); assay: Non-σ competition binding, [3H]nisoxetine; details: read-out: NET Ki; rat brain homogenates

Chains of the proteins cited; added tags and fusions are not shown. Lines headed by an entry give the natural chain unless they say otherwise; changes in a name come on top. Residues count along the entry.
UniProt Q9R0C9, whole entry: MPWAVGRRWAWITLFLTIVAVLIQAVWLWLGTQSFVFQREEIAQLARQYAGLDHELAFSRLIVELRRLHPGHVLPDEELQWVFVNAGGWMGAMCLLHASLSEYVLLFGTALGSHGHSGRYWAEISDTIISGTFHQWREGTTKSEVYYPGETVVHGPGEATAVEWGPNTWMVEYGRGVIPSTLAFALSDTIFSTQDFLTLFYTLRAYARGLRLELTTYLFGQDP
UniProt Q5U3Y7: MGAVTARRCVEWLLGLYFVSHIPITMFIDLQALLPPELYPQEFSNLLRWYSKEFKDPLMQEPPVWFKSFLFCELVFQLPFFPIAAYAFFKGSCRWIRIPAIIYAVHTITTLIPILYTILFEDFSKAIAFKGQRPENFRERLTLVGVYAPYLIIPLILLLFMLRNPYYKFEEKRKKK
UniProt Q63380, 1-617: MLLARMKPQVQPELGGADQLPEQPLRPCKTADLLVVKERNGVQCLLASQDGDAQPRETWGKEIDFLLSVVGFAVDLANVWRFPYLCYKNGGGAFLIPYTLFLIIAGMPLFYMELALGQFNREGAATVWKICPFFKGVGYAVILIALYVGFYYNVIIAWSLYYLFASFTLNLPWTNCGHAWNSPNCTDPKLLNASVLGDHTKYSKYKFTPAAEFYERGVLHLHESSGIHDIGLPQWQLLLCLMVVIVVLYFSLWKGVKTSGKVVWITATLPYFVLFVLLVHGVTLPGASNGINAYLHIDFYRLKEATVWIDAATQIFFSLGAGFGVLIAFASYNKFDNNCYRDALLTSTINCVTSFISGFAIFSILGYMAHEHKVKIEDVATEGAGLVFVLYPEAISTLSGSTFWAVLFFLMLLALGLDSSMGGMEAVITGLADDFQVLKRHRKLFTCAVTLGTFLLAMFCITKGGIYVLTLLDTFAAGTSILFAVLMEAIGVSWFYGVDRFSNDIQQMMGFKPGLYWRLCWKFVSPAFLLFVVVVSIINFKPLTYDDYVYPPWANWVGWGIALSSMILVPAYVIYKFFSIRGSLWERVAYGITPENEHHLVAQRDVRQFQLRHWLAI

SMILES | Ki (σ-1) [nM] | Ki (σ-2) [nM] | other results
CC(CCCN1C(=O)CSc2ccccc21)N1CCN(C2CCCCC2)CC1 (stereo not shown) [AZ-60] | 92.4 ± 9.76 | – | –
O=c1oc2ccccc2n1CCCCN1CCN(Cc2ccccc2)CC1 [CM 159] | – | 46.4 ± 12.6 | –
O=c1oc2ccccc2n1CCCCN1CC=C(c2ccc(Cl)cc2)CC1 [CM 165] | – | 14.4 ± 3.09 | –
O=c1oc2ccccc2n1CCCCN1CCN(CC2CCCCC2)CC1 [CM 171] | – | 13.9 ± 2.86 | –
O=c1oc2ccccc2n1CCCCN1CCC(c2ccccc2)CC1 [CM 172] | – | 17.2 ± 1.04 | –
O=c1oc2cc([N+](=O)[O-])ccc2n1CCCCN1CCN(C2CCCCC2)CC1 [CM 188] | 11.1 ± 1.61 | – | –
COc1cc2c(cc1OC)CN(CCCCn1c(=O)oc3ccccc31)CC2 [CM 295] | 74.3 ± 3.77 | – | –
CC(=O)c1ccc2c(c1)oc(=O)n2CCCCN1CCN(c2ccc(F)cc2)CC1.Cl.Cl [SN-79] | – | – | Ki [1]: 177 ± 14 nM
CC(O)c1ccc2c(c1)oc(=O)n2CCCCN1CCN(c2ccc(F)cc2)CC1 (stereo not shown) [SN-249] | 609 ± 39.8 | – | –
CC(F)c1ccc2c(c1)oc(=O)n2CCCCN1CCN(c2ccc(F)cc2)CC1 (stereo not shown) [SN-253] | 162 ± 11.4 | – | –

Reference: patent publication US9724435B2 (The University of Mississippi, priority 2007, dated 2017)
